Results as given in patent publication US7775469B2, “Purposeful movement of human migratory cells away from an agent source” (The General Hospital Corporation, priority 1999, dated 2010).

Tests used:
[1] = system: T cells of the four subsets used in the in vitro analyses; details: concentrations of SDF-1 used
[2] = system: murine PBMC or CD3+ cells; details: concentrations of SDF-1 used

SDF-1α was tested, and the “toxicity on T cells” value [1] was “no demonstrable toxicity” and the apoptosis [2] was “no evidence of apoptosis”.
